Test system: mitochondrial inner membrane potential (ΔΨ)
Assay: Mitochondrial inner membrane potential, Rhodamine 123 fluorescence quenching in isolated mitochondria
From the text: In response to variations in ΔΨ this dye accumulates proportionally inside the mitochondrial matrix, where its fluorescence is quenched, thus fluorescence changes reflect the changes in the IM potential[33],[34]. […] All the data were normalized relative to the fluorescence intensity after addition CCCP (set to 1).
To quantify the effect of ligand addition we have compared the ligand concentrations required to recover 50% of the initial fluorescence drop (dotted line), i.e. the average of value after addition of EtOH and fully decoupled ΔΨ.
At the end of each experiment the carbonyl cyanide-m-chlorophenyl hydrazone (CCCP, the IM potential uncoupler) was added at 4 μM for the normalization.

Brc1c(Br)c(Br)c2[nH]nnc2c1Br [TBBt, 4,5,6,7-tetrabromo-1H-benzotriazole]
ligand concentration required to recover 50% of the initial fluorescence drop (Rhodamine 123, yeast mitochondria energized with EtOH, normalized to CCCP): less than 2 µM | ligand concentration at which relative fluorescence c.a. 0.95 was reached (Rhodamine 123, yeast mitochondria, 1 = fully uncoupled (CCCP)): ~4 µM

From article PMC8654832, “5,6-diiodo-1H-benzotriazole: new TBBt analogue that minutely affects mitochondrial activity” (Scientific Reports, 2021)
